Experiment [1] concerns the target T1, CB1 (Homo sapiens (Human), UniProt P21554). The experiment in a line: CB1 antagonism assay, red (cAMP) NOMAD biosensor, MPXNomad-CB1 HEK293 cells. As to conditions: read-out: cAMP IC50.
Experiment [2] concerns the target T1, CB1. Nature of the experiment: CB1 antagonism assay, green (β-Arrestin) NOMAD biosensor, MPXNomad-CB1 HEK293 cells. Conditions: read-out: β-Arrestin IC50.
Experiment [3] has as its target cannabinoid receptor 1 (CB1R) (Homo sapiens (Human), UniProt P21554). Nature of the experiment: CB1R binding affinity (inhibition constant Ki). As to conditions: read-out: CB1R Ki.

The chains behind the UniProt entries cited, without tags or fusion partners.
UniProt P21554, whole entry: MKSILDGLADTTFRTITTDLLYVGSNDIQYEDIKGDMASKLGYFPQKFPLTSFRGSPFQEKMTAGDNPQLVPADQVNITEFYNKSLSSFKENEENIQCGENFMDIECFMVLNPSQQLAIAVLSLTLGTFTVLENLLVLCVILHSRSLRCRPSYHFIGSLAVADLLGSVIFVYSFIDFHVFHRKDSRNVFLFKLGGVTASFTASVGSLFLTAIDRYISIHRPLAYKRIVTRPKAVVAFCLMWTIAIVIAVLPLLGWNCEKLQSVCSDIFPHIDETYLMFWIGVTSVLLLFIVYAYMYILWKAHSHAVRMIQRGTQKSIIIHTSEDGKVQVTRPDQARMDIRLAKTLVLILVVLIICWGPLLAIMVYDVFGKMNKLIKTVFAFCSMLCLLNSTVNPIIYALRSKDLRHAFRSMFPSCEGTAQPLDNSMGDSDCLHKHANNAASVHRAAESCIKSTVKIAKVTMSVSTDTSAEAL

Data on three molecules can be found in US20250026723A1, “Cannabinoid Receptor Modulating Compounds” (THE UNITED STATES OF AMERICA, as represented by the …, priority 2021, published 2025).

The term pIC50 denotes the IC50 on a negative log10 scale, so that one unit is a factor of ten. For orientation: pKi means −log10 of the Ki, conventionally taken in molar units.

Each structure is given as a SMILES string. pIC50, pKi: −log10 of the molar value.

On to `N#Cc1ccc(S(=O)(=O)N=C([Se]CC2CC2)N2CC(c3ccccc3)C(c3ccc(Cl)cc3)=N2)cc1` (stereo not shown), for which the pIC50 at CB1 [1] was 7.25; at CB1 [2], 6.94.

For `COCCSC(=NS(=O)(=O)c1ccc(C#N)cc1)N1CC(c2ccccc2)C(c2ccc(Cl)cc2)=N1` (stereo not shown), the results for the pIC50 on CB1 [1] and on CB1 [2] were 5.77 and 5.94, respectively.

Regarding `O=S(=O)(N=C([Se]CC1CC1)N1CC(c2ccccc2)C(c2ccc(Cl)cc2)=N1)c1ccc(C(F)(F)F)cc1` (stereo not shown), the figures for the pIC50 on CB1 [1] and at CB1 [2] were 7.64 and 7.55, respectively. Moreover, in experiment [3], the pKi was 7.92.
